Laboratory results published in PubChem BioAssay AID686978 (National Center for Advancing Translational Sciences (NCATS), 2013).
This is a selection; strong and weak results do not stand in their true shares. Records with an inconclusive call do not appear. Entries that show only a call come without a potency. Some structures show a salt or complex split into parts, the way the source records it. The source made the active and inactive calls. Calls come from the whole dose curve; as a rule, active = well fitted inhibition curve with a large enough effect; inconclusive = small, poorly fitted or top-dose-only effect; inactive = flat fitted curve, though single readings scatter.

Experiment: qHTS for Inhibitors of human tyrosyl-DNA phosphodiesterase 1 (TDP1): qHTS in cells in absence of CPT; note: nearly all actives have a fitted effect of over 55% in size
Settings: DT40 Tdp1-/- hTDP1 cells, no CPT, ATP luminescence, 48 h; series mostly up to 46.2 µM
Potency is the fitted concentration of half-maximal effect.

Compound | Potency
O=C(NCC1(N2CCCCC2)CCCCC1)c1cccc([N+](=O)[O-])c1 | inactive
N#CC1(Nc2ccccc2)CCN(CCc2ccccc2)CC1 | inactive
CCN1CCC(Nc2ccc(Cl)cc2)CC1 | inactive
O=C(NCC1(N2CCCCC2)CCCCC1)c1ccc(OC(F)F)cc1 | inactive
CN1CCN(CCOC(=O)C(O)(c2ccccc2)c2ccccc2)CC1 | inactive
COc1ccc(NC2CCN(C(=O)OC(C)(C)C)CC2)cc1 | inactive
COc1cc(C(=O)NCC2(N3CCCCC3)CCCCC2)ccc1OC(F)F | inactive
O=C(NCC1(N2CCOCC2)CCCCC1)c1cc(=O)[nH]c2ccccc12 | inactive
O=C(NCC1(N2CCCCC2)CCCCC1)c1cccc(C(F)(F)F)c1 | inactive
CCN(CC)CCCNc1ccccc1[N+](=O)[O-].O=[N+]([O-])c1cc([N+](=O)[O-])c(O)c([N+](=O)[O-])c1 | inactive
COc1cc(OC)c(C(=O)NCC2(N(C)C)CCCCC2)cc1OC | inactive
CN(C)c1cccc(C(=O)NCC2(N3CCCCC3)CCCCC2)c1 | inactive
CC(C)c1ccc(NC2CCN(C(=O)OC(C)(C)C)CC2)cc1 | active: 23.1 µM
CCCOc1ccc(C(=O)NCC2(N(C)C)CCCCC2)cc1OC | inactive
Cc1ccc(C(=O)NCC2(N(C)C)CCCCC2)o1 | inactive
CCCCOc1ccccc1C(=O)NCC1(N2CCOCC2)CCCCC1 | active: 13 µM
COc1ccc2c(c1O)-c1c(O)c(OC)cc3c1[C@H](C2)[N+](C)(C)CC3.O=[N+]([O-])c1cc([N+](=O)[O-])c([O-])c([N+](=O)[O-])c1[O-] | inactive
O=C(NCC1(N2CCCCC2)CCCCC1)c1cncc(Br)c1 | inactive
CN1CCC(Nc2cccc(F)c2)CC1 | inactive
O=C(OC1CN2CCC1CC2)c1ccc([N+](=O)[O-])cc1 (configuration not stated) | inactive
Cc1cccc(NC2(C#N)CCN(Cc3ccccc3)CC2)c1 | inactive
CSc1ccccc1C(=O)NCC1(N2CCCCC2)CCCCC1 | inactive
O=C(NCC1(N2CCCCC2)CCCCC1)c1cccs1 | inactive

Compound | Potency
O=C(NCC1(N2CCCCC2)CCCCC1)c1ccc(=O)[nH]c1 | inactive
CCOC(=O)N1CCC(Nc2ccc(OC)cc2)CC1 | inactive
O=C1C(O)=C([N+](=O)[O-])C(=O)C(O)=C1[N+](=O)[O-] | inactive
COc1ccc(Cl)cc1C(=O)NCC1(N2CCOCC2)CCCCC1 | active: 16.4 µM
O=C(OC1CN2CCC1CC2)C1c2ccccc2Oc2ccccc21 (configuration not stated) | active: 16.4 µM
O=C(NCC1(N2CCCCC2)CCCCC1)c1ccc(Cl)s1 | inactive
N#CC1(Nc2ccccc2)CCN(Cc2ccccc2)CC1 | inactive
Cc1cc(C)cc(N(C(=O)c2ccccc2)C2CCN(C(=O)OC(C)(C)C)CC2)c1 | active: 25.9 µM
O=C(NCC1(N2CCCCC2)CCCCC1)c1ccc(Cl)nc1 | inactive
COc1ccc(NC2CCN(CCc3ccccc3)CC2)c(OC)c1 | inactive
CCOC(=O)N1CCC(Nc2ccc(F)cc2)CC1 | inactive
O=C(NCC1(N2CCCCC2)CCCCC1)c1ccc(F)cc1 | inactive
O=P1(N(CCCl)CCCl)SCCCS1 | inactive
O=C1CCN(Cc2ccccc2)CC1 | inactive
COc1cc(C(=O)NCC2(N(C)C)CCCCC2)ccc1OC(F)F | inactive
CCOC(=O)N1CCC(Nc2cccc(C)c2)CC1 | inactive
Cc1ccc(NC2(C#N)CCN(Cc3ccccc3)CC2)cc1 | inactive
Fc1ccccc1NC1CCN(Cc2ccccc2)CC1 | inactive
Cc1ccc(C(=O)NCC2(N3CCCCC3)CCCCC2)o1 | inactive
COc1cc(OC)cc(C(=O)NCC2(N3CCCCC3)CCCCC2)c1 | inactive
CN(C)c1ccc(C(=O)NCC2(N3CCCCC3)CCCCC2)cc1 | inactive
CC(C)(C)c1ccc(C(=O)NCC2(N3CCOCC3)CCCCC2)cc1 | active: 16.4 µM
O=C(NCC1(N2CCCCC2)CCCCC1)c1ccco1 | inactive

Compound | Potency
Cc1ccccc1C(=O)NCC1(N(C)C)CCCCC1 | inactive
CCN1CCC(Nc2cccc(F)c2)CC1 | inactive
Cc1ccccc1NC1(C#N)CCN(Cc2ccccc2)CC1 | inactive
CCCOc1ccc(C(=O)NCC2(N(C)C)CCCCC2)cc1 | inactive
O=C(O)C1(Nc2ccccc2)CCN(Cc2ccccc2)CC1 | inactive
CN1CCC(Nc2ccc(F)c(Cl)c2)CC1 | inactive
CN1CCC(Nc2ccc(Cl)cc2)CC1 | inactive
CCC(CO)(C(=O)OC1CN2CCC1CC2)c1ccccc1 (configuration not stated) | inactive
COc1cc(OC)cc(C(=O)NCC2(N3CCOCC3)CCCCC2)c1 | inactive
COc1cccc(C(=O)N(c2cc(C)cc(C)c2)C2CCN(C(=O)OC(C)(C)C)CC2)c1 | active: 18.4 µM
COc1ccc(C(=O)NCC2(N3CCOCC3)CCCCC2)cc1OC | inactive
O=C(O)c1cccc(Nc2c([N+](=O)[O-])cc([N+](=O)[O-])cc2[N+](=O)[O-])c1 | inactive
O=C(OC1CN2CCC1CC2)C1c2ccccc2C=Cc2ccccc21 (configuration not stated) | active: 16.4 µM
N/C(=N\O)c1c(N)no[n+]1[O-] | inactive
CCOC(=O)N1CCC(Nc2ccc(C)cc2)CC1 | inactive
CCOC(=O)C(CC)C1=NC(C)(C)Cc2ccccc21.O=[N+]([O-])c1cc([N+](=O)[O-])c(O)c([N+](=O)[O-])c1 (configuration not stated) | inactive
N#Cc1ccc(C(=O)NCC2(N3CCCCC3)CCCCC2)cc1 | inactive
CCCN1CCC(Nc2cc(OC)cc(OC)c2)CC1 | inactive
O=c1[nH]c2ccccc2n1C1CCN(C(c2ccccc2)c2nnnn2C2CCCC2)CC1 (configuration not stated) | inactive
c1ccc(CN2CCC(Nc3ccccc3)CC2)cc1 | inactive
CN(C)C1(CNC(=O)c2cccc(C#N)c2)CCCCC1 | inactive
